{
  "source": "patent US9334257B2",
  "about": "“Methods of purifying and identifying the presence of and levels of procyanidin oligomeric compounds” (The Hershey Company, priority 2012, dated 2016)",
  "assay": "Partition coefficient of cocoa procyanidin oligomers in the CPC biphasic solvent system",
  "type": "physicochemical",
  "conditions": "typical CPC runs as described; biphasic ethyl acetate:ethanol:water (6:1:5), ascending mode; unfermented cocoa bean sample of 8.5 grams",
  "method": "A sample is mixed with water and prepared for FCPC with a KROMATON device and rotor. Columns are prepared with biphasic solvent mixture of ethyl acetate:ethanol:water at 6:1:5 ratio. The solvent used can be modified from this ratio by calculating the partition coefficients and comparing to that of the ethyl acetate:ethanol:water example. The FCPC is run in ascending mode for purifying procyanidins, so that the mobile phase is the upper phase in the resting columns.\nThese quantities are isolated from an unfermented cocoa bean sample of 8.5 grams. In comparison, with a diol HPLC column, 150×30 mm, injecting about 270 mg of the same sample per run yields only about 25 mg of DP2-4 and less than 1 mg of DP11-12. Clearly, the CPC methods of the invention provide commercially viable methods for producing usable quantities of a range of procyanidin oligomers, especially from cocoa sources.",
  "data": [
    {"substance": "catechin", "values": [
      {"measurement": "Partition coefficient", "value": 1.06}
    ]}
  ]
}
